Tested on: HLA-A2 supertype molecules (A*0201, A*0202, A*0203, A*0206, A*6802)
Test: A2-supertype cross-reactive binding (number of the five alleles bound)
Set-up: species or system human
Conditions: number of the five A2-supertype alleles bound

Row | A2 Cross-Reactivity | SMILES
1 | 4 | CC(C)C[C@H](NC(=O)[C@H](CO)NC(=O)[C@H](C)NC(=O)[C@H](C)NC(=O)[C@H](CCCNC(=N)N)NC(=O)[C@H](C)NC(=O)[C@H](CC(C)C)NC(=O)[C@H](CC(C)C)NC(=O)[C@@H](N)CC(C)C)C(=O)O [Peptide 20.0044]
2 | 3 | CC(C)C[C@H](NC(=O)[C@H](CO)NC(=O)[C@H](CC(C)C)NC(=O)[C@H](CO)NC(=O)[C@H](C)NC(=O)[C@H](C)NC(=O)[C@H](CCCNC(=N)N)NC(=O)[C@H](C)NC(=O)[C@H](CC(C)C)NC(=O)[C@@H](N)CC(C)C)C(=O)O [Peptide 20.0203]
3 | 3 | CSCC[C@H](NC(=O)[C@H](C)NC(=O)[C@H](CO)NC(=O)[C@H](CCSC)NC(=O)[C@H](CC(C)C)NC(=O)[C@@H](N)[C@@H](C)O)C(=O)N[C@H](C(=O)N[C@@H](CC(N)=O)C(=O)N[C@@H](CC(C)C)C(=O)N[C@@H](C)C(=O)O)[C@@H](C)O [Peptide 20.0312]
4 | 3 | CC(C)C[C@H](NC(=O)[C@H](Cc1c[nH]cn1)NC(=O)[C@H](CC(C)C)NC(=O)[C@H](CO)NC(=O)[C@@H](NC(=O)[C@H](CS)NC(=O)[C@H](CCC(N)=O)NC(=O)[C@H](CC(C)C)NC(=O)[C@@H](N)CO)C(C)C)C(=O)O [Peptide 60.0191]
5 | 4 | CC(C)C[C@H](NC(=O)[C@H](CC(C)C)NC(=O)[C@@H](N)CC(C)C)C(=O)N[C@@H](C)C(=O)N[C@@H](CCCNC(=N)N)C(=O)N[C@@H](C)C(=O)N[C@@H](C)C(=O)N[C@@H](CO)C(=O)N[C@H](C(=O)O)C(C)C [Peptide 60.0201]
6 | 4 | CC(C)C[C@H](NC(=O)[C@H](CC(C)C)NC(=O)[C@H](Cc1ccccc1)NC(=O)[C@H](CC(C)C)NC(=O)[C@@H](N)Cc1ccccc1)C(=O)N[C@@H](Cc1ccccc1)C(=O)N[C@@H](Cc1ccccc1)C(=O)N[C@@H](Cc1c[nH]c2ccccc12)C(=O)N[C@H](C(=O)O)C(C)C [Peptide 60.0203]
7 | 3 | CC[C@H](C)[C@H](NC(=O)[C@H](CO)NC(=O)[C@@H](NC(=O)CN)C(C)C)C(=O)N[C@@H](Cc1c[nH]c2ccccc12)C(=O)N[C@@H](CC(N)=O)C(=O)N1CCC[C@H]1C(=O)N[C@H](C(=O)N[C@H](C(=O)O)C(C)C)[C@@H](C)CC [Peptide 60.0207]
8 | 5 | CSCC[C@H](NC(=O)[C@H](CCC(N)=O)NC(=O)[C@H](CC(C)C)NC(=O)CNC(=O)[C@H](CO)NC(=O)[C@@H](NC(=O)[C@@H](N)[C@@H](C)O)C(C)C)C(=O)N[C@@H](C)C(=O)N[C@H](C(=O)O)C(C)C [Peptide 60.0213]
9 | 4 | CC(C)C[C@H](NC(=O)[C@@H](NC(=O)[C@H](CC(C)C)NC(=O)[C@@H](N)Cc1ccccc1)[C@@H](C)O)C(=O)N[C@@H](CO)C(=O)N[C@H](C(=O)N[C@H](C(=O)N[C@@H](Cc1c[nH]c2ccccc12)C(=O)N[C@H](C(=O)O)C(C)C)[C@@H](C)O)C(C)C [Peptide 60.0216]
10 | 4 | CC[C@H](C)[C@H](NC(=O)[C@H](Cc1c[nH]c2ccccc12)NC(=O)[C@@H](NC(=O)[C@@H](NC(=O)[C@H](CO)NC(=O)[C@H](CC(C)C)NC(=O)[C@@H](N)[C@@H](C)O)C(C)C)[C@@H](C)O)C(=O)NCC(=O)N[C@H](C(=O)O)C(C)C [Peptide 60.0217]
11 | 3 | CSCC[C@H](NC(=O)[C@H](Cc1ccccc1)NC(=O)[C@H](CCCCN)NC(=O)[C@@H](NC(=O)[C@@H](NC(=O)[C@@H](N)CCCCN)C(C)C)[C@@H](C)O)C(=O)N[C@@H](CC(C)C)C(=O)N[C@@H](CS)C(=O)N[C@H](C(=O)O)C(C)C [Peptide 60.0220]
12 | 4 | CC(C)C[C@H](NC(=O)[C@H](CO)NC(=O)[C@H](C)NC(=O)[C@H](C)NC(=O)[C@H](CCCNC(=N)N)NC(=O)[C@H](C)NC(=O)[C@H](CC(C)C)NC(=O)[C@@H](N)CC(C)C)C(=O)N[C@@H](CO)C(=O)N[C@H](C(=O)O)C(C)C [Peptide 63.0031]
13 | 4 | CC(C)C[C@H](NC(=O)[C@H](CC(C)C)NC(=O)[C@@H](N)CO)C(=O)N[C@@H](C)C(=O)N[C@@H](CCCCN)C(=O)N[C@@H](CCC(=O)O)C(=O)N[C@@H](CC(C)C)C(=O)N[C@@H](CCCCN)C(=O)N[C@@H](Cc1ccccc1)C(=O)N[C@H](C(=O)O)C(C)C [Peptide 63.0033]
14 | 4 | CC(C)C[C@H](NC(=O)[C@H](CCC(=O)O)NC(=O)[C@H](CCCCN)NC(=O)[C@H](C)NC(=O)[C@H](CC(C)C)NC(=O)[C@@H](N)C(C)C)C(=O)N[C@@H](CCCCN)C(=O)N[C@@H](Cc1ccccc1)C(=O)N[C@H](C(=O)N[C@H](C(=O)O)C(C)C)C(C)C [Peptide 63.0034]
15 | 4 | CC[C@H](C)[C@H](NC(=O)[C@H](CO)NC(=O)[C@@H](NC(=O)CN)C(C)C)C(=O)N[C@@H](Cc1c[nH]c2ccccc12)C(=O)N[C@@H](CC(N)=O)C(=O)N1CCC[C@H]1C(=O)N[C@H](C(=O)N[C@@H](CC(C)C)C(=O)N[C@H](C(=O)O)C(C)C)[C@@H](C)CC [Peptide 63.0041]
16 | 4 | CC[C@H](C)[C@H](NC(=O)[C@@H]1CCCN1C(=O)[C@H](CCC(N)=O)NC(=O)[C@H](Cc1c[nH]c2ccccc12)NC(=O)[C@H](CC(C)C)NC(=O)[C@H](CC(C)C)NC(=O)[C@H](CC(C)C)NC(=O)[C@@H]1CCCN1)C(=O)N1CCC[C@H]1C(=O)N[C@H](C(=O)O)C(C)C [Peptide 63.0042]
17 | 4 | CC(C)C[C@H](NC(=O)[C@H](CCC(=O)O)NC(=O)[C@H](CCCNC(=N)N)NC(=O)[C@H](CC(C)C)NC(=O)[C@@H](N)CCCCN)C(=O)N[C@@H](CO)C(=O)N[C@@H](CCC(=O)O)C(=O)N[C@@H](CC(C)C)C(=O)N[C@@H](CO)C(=O)N[C@H](C(=O)O)C(C)C [Peptide 63.0048]
18 | 5 | CC(C)C[C@H](NC(=O)[C@H](CO)NC(=O)[C@H](CC(C)C)NC(=O)[C@H](CO)NC(=O)[C@H](C)NC(=O)[C@H](C)NC(=O)[C@H](CCCNC(=N)N)NC(=O)[C@H](C)NC(=O)[C@H](CC(C)C)NC(=O)[C@H](CC(C)C)NC(=O)[C@@H](N)CC(C)C)C(=O)O [Peptide 63.0136]
19 | 4 | CC(C)C[C@H](NC(=O)[C@H](Cc1ccccc1)NC(=O)[C@H](CC(C)C)NC(=O)[C@H](Cc1ccccc1)NC(=O)CNC(=O)[C@H](CC(C)C)NC(=O)[C@H](CO)NC(=O)[C@H](CC(C)C)NC(=O)[C@H](CO)NC(=O)[C@H](C)NC(=O)[C@H](C)N)C(=O)O [Peptide 63.0137]
20 | 3 | CC(C)C[C@H](NC(=O)[C@@H](NC(=O)[C@H](CO)NC(=O)[C@H](CCCNC(=N)N)NC(=O)[C@H](CC(=O)O)NC(=O)[C@H](CC(C)C)NC(=O)[C@H](Cc1c[nH]c2ccccc12)NC(=O)[C@H](Cc1ccccc1)NC(=O)[C@H](Cc1ccccc1)NC(=O)[C@H](CC(C)C)NC(=O)[C@@H](N)CC(C)C)C(C)C)C(=O)O [Peptide 63.0139]
21 | 4 | CC(C)C[C@H](NC(=O)[C@@H](NC(=O)[C@@H](NC(=O)[C@H](Cc1ccccc1)NC(=O)[C@H](CCCCN)NC(=O)[C@H](CC(C)C)NC(=O)[C@H](CCC(=O)O)NC(=O)[C@H](CCCCN)NC(=O)[C@H](C)NC(=O)[C@H](CC(C)C)NC(=O)[C@@H](N)C(C)C)C(C)C)[C@@H](C)O)C(=O)O [Peptide 63.0142]
22 | 4 | CC(C)C[C@H](NC(=O)[C@H](Cc1ccccc1)NC(=O)[C@@H](NC(=O)[C@@H](N)C(C)C)C(C)C)C(=O)N[C@H](C(=O)N[C@@H](CC(C)C)C(=O)N[C@@H](CO)C(=O)N[C@H](C(=O)N[C@H](C(=O)N[C@@H](Cc1c[nH]c2ccccc12)C(=O)N[C@H](C(=O)O)C(C)C)[C@@H](C)O)C(C)C)[C@@H](C)O [Peptide 63.0185]
23 | 4 | CC[C@H](C)[C@H](NC(=O)[C@H](Cc1ccccc1)NC(=O)[C@H](C)NC(=O)[C@H](CCCNC(=N)N)NC(=O)[C@H](CCC(=O)O)NC(=O)[C@H](CC(C)C)NC(=O)[C@H](Cc1ccccc1)NC(=O)[C@H](CCSC)NC(=O)[C@H](CC(C)C)NC(=O)[C@@H](N)CCC(N)=O)C(=O)O [Peptide 1126.16]
24 | 3 | CSCC[C@H](N)C(=O)N[C@@H](CC(C)C)C(=O)N[C@@H](CC(C)C)C(=O)N[C@@H](CCCNC(=N)N)C(=O)N[C@@H](CC(C)C)C(=O)N[C@@H](CO)C(=O)N[C@@H](CCC(=O)O)C(=O)N1CCC[C@H]1C(=O)N[C@@H](C)C(=O)N[C@@H](CCC(=O)O)C(=O)N[C@H](C(=O)O)C(C)C [Peptide 1389.12]
25 | 4 | CC(C)C[C@H](NC(=O)[C@H](CC(=O)O)NC(=O)CNC(=O)[C@H](CCC(=O)O)NC(=O)[C@@H]1CCCN1C(=O)[C@H](CC(C)C)NC(=O)CN)C(=O)N[C@H](C(=O)N[C@@H](Cc1ccc(O)cc1)C(=O)N[C@H](C(=O)O)C(C)C)C(C)C [Peptide 1389.22]
26 | 4 | CC(C)C[C@H](NC(=O)[C@H](C)N)C(=O)N[C@@H](CO)C(=O)N[C@H](C(=O)NCC(=O)N[C@@H](CS)C(=O)N[C@H](C(=O)NCC(=O)N[C@H](C(=O)O)C(C)C)[C@@H](C)O)C(C)C [Peptide 1418.15]
27 | 3 | CC(C)C[C@H](NC(=O)[C@H](CO)NC(=O)[C@@H](NC(=O)[C@H](CS)NC(=O)[C@H](CCC(N)=O)NC(=O)[C@H](CC(C)C)NC(=O)[C@@H](N)CO)C(C)C)C(=O)N[C@@H](Cc1c[nH]cn1)C(=O)N[C@H](C(=O)O)C(C)C [Peptide 1418.19]
28 | 4 | CSCC[C@H](NC(=O)[C@H](CC(=O)O)NC(=O)[C@H](CC(N)=O)NC(=O)[C@H](CO)NC(=O)[C@H](CC(C)C)NC(=O)[C@H](CC(C)C)NC(=O)[C@@H](N)Cc1c[nH]cn1)C(=O)N[C@@H](CS)C(=O)N[C@H](C(=O)O)C(C)C [Peptide 1418.20]
29 | 4 | CSCC[C@H](NC(=O)[C@H](Cc1ccccc1)NC(=O)[C@H](CCC(=O)O)NC(=O)[C@@H](NC(=O)[C@@H](NC(=O)[C@@H](N)CCCCN)C(C)C)[C@@H](C)O)C(=O)N[C@@H](CC(C)C)C(=O)N[C@@H](CS)C(=O)N[C@H](C(=O)O)C(C)C [Peptide 1418.21]

Row | SMILES | A2 Cross-Reactivity
30 | CC(C)C[C@H](NC(=O)[C@H](CC(C)C)NC(=O)CNC(=O)[C@H](CC(N)=O)NC(=O)[C@H](Cc1ccc(O)cc1)NC(=O)[C@@H](NC(=O)[C@H](CC(=O)O)NC(=O)[C@H](CC(C)C)NC(=O)[C@H](C)N)C(C)C)C(=O)O [Peptide 1177.02] | 3

From patent US20040037843A1, “Inducing cellular immune responses to prostate cancer antigens using peptide and nucleic acid compositions” (priority 2003, published 2004)
